Test system: SCLC cell lines
Assay: In vitro Synergy Score of combinations with the LSD1 inhibitor in expanded panel of SCLC cell lines, Example 3 / Table 5
Format: cell-based, human
Conditions: for Synergy Scores of SCLC cell lines DMS-114: SCLC cell line DMS-114; for Synergy Scores of SCLC cell lines DMS-114 / Synergy Scores of SCLC cell lines NCI-H69 / Synergy Scores of SCLC cell lines NCI-H187 / Synergy Scores of SCLC cell lines NCI-H446 / Synergy Scores of SCLC cell lines NCI-H510 / Synergy Scores of SCLC cell lines NCI-H526 / Synergy Scores of SCLC cell lines NCI-H1417 / Synergy Scores of SCLC cell lines NCI-H1876 / Synergy Scores of SCLC cell lines NCI-H2171 / Synergy Scores of SCLC cell lines SHP-77: 2nd API combined with (trans)-N1-((1R,2S)-2-phenylcyclopropyl)cyclohexane-1,4-diamine, scores >6.4 considered significant; for Synergy Scores of SCLC cell lines NCI-H69: SCLC cell line NCI-H69; for Synergy Scores of SCLC cell lines NCI-H187: SCLC cell line NCI-H187; for Synergy Scores of SCLC cell lines NCI-H446: SCLC cell line NCI-H446; for Synergy Scores of SCLC cell lines NCI-H510: SCLC cell line NCI-H510; for Synergy Scores of SCLC cell lines NCI-H526: SCLC cell line NCI-H526; for Synergy Scores of SCLC cell lines NCI-H1417: SCLC cell line NCI-H1417; for Synergy Scores of SCLC cell lines NCI-H1876: SCLC cell line NCI-H1876; for Synergy Scores of SCLC cell lines NCI-H2171: SCLC cell line NCI-H2171; for Synergy Scores of SCLC cell lines SHP-77: SCLC cell line SHP-77; for synergy with LSD1 inhibition: combination with (trans)-N1-((1R,2S)-2-phenylcyclopropyl)cyclohexane-1,4-diamine, expanded panel of SCLC cell lines

Row | SMILES | Synergy Scores of SCLC cell lines DMS-114 | Synergy Scores of SCLC cell lines NCI-H69 | Synergy Scores of SCLC cell lines NCI-H187 | Synergy Scores of SCLC cell lines NCI-H446 | Synergy Scores of SCLC cell lines NCI-H510 | Synergy Scores of SCLC cell lines NCI-H526 | Synergy Scores of SCLC cell lines NCI-H1417 | Synergy Scores of SCLC cell lines NCI-H1876 | Synergy Scores of SCLC cell lines NCI-H2171 | Synergy Scores of SCLC cell lines SHP-77 | synergy with LSD1 inhibition
1 | CCCc1cc(C)[nH]c(=O)c1CNC(=O)c1cc(-c2ccnc(N3CCN(C)CC3)c2)cc2c1cnn2C(C)C [GSK343, N-[(1,2-dihydro-6-methyl-2-oxo-4-propyl-3-pyridinyl)methyl]-1-(1-methylethyl)-6-[2-(4-methyl-1-piperazinyl)-4-pyridinyl]-1H-indazole-4-carboxamide] | 0.05 | 0.81 | 0.15 | 0.01 | 4.25 | 2.48 | 0.24 | 0.81 | 0.36 | 0.13 | 
2 | COc1cc2c(cc1-c1c(C)noc1C)ncc1[nH]c(=O)n([C@H](C)c3ccccn3)c12 [GSK1210151A, 7,3,5-dimethyl-4-isoxazolyl-1,3-dihydro-8-methoxy-1-[1R-1-(2-pyridinyl)ethyl]-2H-imidazo[4,5-c]quinolin-2-one] | 0.67 | 10.38 | 1.77 | 0.32 | 15.35 | 12.65 | 15.13 | 11.42 | 10.11 | 0.66 | highly synergistic
3 | CC(=O)N1c2ccc(-c3ccc(C(=O)O)cc3)cc2[C@H](Nc2ccc(Cl)cc2)C[C@@H]1C [GSK1324726A, 4-[(2S,4R)-1-acetyl-4-[(4-chlorophenyl)amino]-l,2,3,4-tetrahydro-2-methyl-6-quinolinyl]-benzoic acid] | 1.22 | 10.17 | 2.66 | 1.25 | 21.32 | 12.18 | 21.84 | 15.98 | 9.12 | 0.72 | highly synergistic
4 | Cc1c(C(=O)Nc2ccc(N3C[C@@H](C)O[C@@H](C)C3)nc2)cccc1-c1ccc(OC(F)(F)F)cc1 [LDE225, N-[6-[(2S,6R)-2,6-Dimethylmorpholin-4-yl]pyridin-3-yl]-2-methyl-3-[4-(trifluoromethoxy)phenyl]benzamide] | 0.08 | 0.78 | 0.73 | 0.02 | 5.81 | 2.17 | 1.01 | 0.57 | 0.34 | 0.53 | 
5 | C[C@H](NC(=O)CCC(F)(F)F)C(=O)N[C@@H]1C(=O)N(CCO)c2ncccc2-c2ccccc21 [LY-3039478, N-[(1S)-2-[[(7S)-6,7-dihydro-5-(2-hydroxyethyl)-6-oxo-5H-pyrido[3,2-a][3]benzazepin-7-yl]amino]-1-methyl-2-oxoethyl]-4,4,4-trifluoro-butanamide] | 0.00 | 4.94 | 0.47 | 0.28 | 0.00 | 7.90 | 0.21 | 0.19 | 0.30 | 0.12 | 
6 | O=C(O)CC[C@H]1CC[C@@](c2cc(F)ccc2F)(S(=O)(=O)c2ccc(Cl)cc2)CC1 [MK-0752, cis-4-[(4-chlorophenyl)sulfonyl]-4-(2,5-difluorophenyl)-cyclohexanepropanoic acid] | 0.04 | 3.88 | 0.32 | 0.43 | 0.71 | 6.03 | 0.15 | 0.69 | 0.17 | 0.03 | 
7 | Cc1cc(/N=N/c2ccc(S(=O)(=O)Nc3ccccn3)cc2)c(N)cc1O [MS 436, 4-[(1E)-2-(2-amino-4-hydroxy-5-methylphenyl)diazenyl]-N-2-pyridinyl-benzenesulfonamide] | 0.18 | 3.82 | 0.06 | 0.42 | 5.52 | 15.84 | 12.37 | 5.74 | 1.37 | 0.23 | highly synergistic
8 | Cc1sc2c(c1C)C(c1ccc(Cl)cc1)=N[C@@H](CC(=O)Nc1ccc(O)cc1)c1nnc(C)n1-2 [OTX015, (6S)-4-(4-chlorophenyl)-N-(4-hydroxyphenyl)-2,3,9-trimethyl-6H-Thieno[3,2-f][l,2,4]triazolo[4,3-a][1,4]diazepine-6-acetamide] | 0.10 | 8.65 | 0.88 | 0.44 | 11.52 | 16.72 | 14.26 | 14.88 | 5.30 | 0.78 | highly synergistic
9 | COC1=CC(c2cc3ccccc3[nH]2)=NC1=Cc1[nH]c(C)cc1C [Obatoclax, 2-(2-((3,5-Dimethyl-1H-pyrrol-2-yl)methylene)-3-methoxy-2H-pyrrol-5-yl)-1H-indole] | 1.87 | 6.01 | 0.81 | 2.57 | 6.31 | 8.19 | 2.36 | 6.11 | 0.61 | 4.76 | highly synergistic
10 | Br.Br.CCC[C@H](N[C@H]1CCc2cc(F)cc(F)c2C1)C(=O)Nc1cn(C(C)(C)CNCC(C)(C)C)cn1 [PF-3084014, (2S)-2-[[(2S)-6,8-Difluoro-1,2,3,4-tetrahydro-2-naphthalenyl]amino]-N-[1-[2-[(2,2-dimethylpropyl)amino]-1,1-dimethylethyl]-1H-imidazol-4-yl]pentanamide dihydrobromide] | 0.02 | 1.53 | 0.10 | 1.31 | 0.03 | 8.64 | 0.02 | 0.25 | 1.02 | 0.19 | 
11 | CC(C)c1ccccc1Cc1cc(C(=O)Nc2ccc(S(=O)(=O)c3ccccc3C(C)(C)C)cc2)c(O)c(O)c1O [TW-37, N-[4-[[2-(1,1-dimethylethyl)phenyl]sulfonyl]phenyl]-2,3,4-trihydroxy-5-[[2-(1-methylethyl)phenyl]methyl]-benzamide] | 0.59 | 2.23 | 0.57 | 0.28 | 6.95 | 3.60 | 8.08 | 0.86 | 0.72 | 0.45 | highly synergistic
12 | CN(C(=O)c1ccc(F)cc1C(F)(F)F)C1CCN(c2nnc(-c3ccnn3C)c3ccccc23)CC1 [Taladegib, 4-fluoro-N-methyl-N-[1-[4-(1-methyl-1H-pyrazol-5-yl)-1-phthalazinyl]-4-piperidinyl]-2-(trifluoromethyl)-benzamide] | 0.10 | 2.35 | 0.09 | 0.01 | 2.50 | 3.66 | 0.19 | 1.64 | 0.11 | 0.19 | 

From patent US12564559B2, “Combinations of LSD1 inhibitors for use in the treatment of solid tumors” (Oryzon Genomics, S.A., priority 2016, dated 2026)
